Paper PMC1903359, “Engineering of PA-IIL lectin from Pseudomonas aeruginosa – Unravelling the role of the specificity loop for sugar preference” (BMC Structural Biology, 2007)

Chains of the proteins cited; added tags and fusions are not shown. Residues count along the entry.
UniProt Q9HYN5, 2-115 S24A: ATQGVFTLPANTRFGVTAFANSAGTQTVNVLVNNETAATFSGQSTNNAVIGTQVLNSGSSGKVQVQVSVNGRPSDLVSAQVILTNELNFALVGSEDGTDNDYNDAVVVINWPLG

Columns and labels:
PA-IIL S23A = PA-IIL S23A (Pseudomonas aeruginosa, UniProt Q9HYN5, S24A); experiment: ITC binding of monosaccharides to PA-IIL mutant S23A; conditions: ITC at 25°C; for ΔG: calculated from Ka
RS-IIL = test system: RS-IIL; design: method as in PMID 16768446; conditions: ITC at 25°C, comparison data, Figure 7 gives ref 18; cited from earlier work
PA-IIL wild type = conditions: ITC at 25°C, ref Sabin, C. et al, 2006 [14]; cited from earlier work

## CO[C@H]1O[C@H](CO)[C@@H](O)[C@H](O)[C@@H]1O [Me-β-D-Man, methyl α-D-mannopyranoside]
PA-IIL S23A
  Kd: 54 µM
  ΔG: -24.4 (± 0.4) kJ/mol
RS-IIL
  ΔH: -24.9 (± 0.2) kJ/mol

## CO[C@@H]1O[C@@H](CO)[C@@H](O)[C@@H](O)[C@@H]1O [Me-α-L-Gal, methyl α-L-galactopyranoside]
PA-IIL S23A
  Kd: 1.23 µM
  ΔG: -33.9 (± 0.4) kJ/mol
PA-IIL S23A; 0.1 M Tris-HCl, 30 μM CaCl2, pH 7.5
  KA: 81.6 (± 14.4) ×10^4M^-1
PA-IIL wild type
  ΔG: -33.8 (± 0.1) kJ/mol
